Experiment: Stability of ceftriaxone in spiked human plasma under different storage conditions (LC-MS/MS)
Format: physicochemical
Details: -80°C; 7 months (224 days); all anticoagulants

CO/N=C(\C(=O)N[C@@H]1C(=O)N2C(C(=O)O)=C(CSc3nc(=O)c(=O)[nH]n3C)CS[C@H]12)c1csc(N)n1 [ceftriaxone]
Long-term stability in plasma: good stability
